Only some compounds are listed: those with a hit (about 1.2% of all), similar ones and a draw of the others.
Cneo AK release – Cryptococcus neoformans lysis via adenylate kinase release | actives 0.2% (n = 360,000) | lysis activity, % at 15 µM | C. neoformans lysis, adenylate kinase release luminescence, 4 h; normalised: neutral wells 0, clomiphene wells 100;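 active = mean lysis activity across replicates of at least 80%, whatever share of replicates individually reach that level; inactive = mean lysis activity below 80%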
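Test system: log-phase Cryptococcus neoformans yeast cells; Quantity: yeast cell density of 5 × 10^6 cells/mL; Buffer or medium: YPD; Doses: single compound concentration per well; Timing: 4 h at 37 °C static, read 1 h later; Measured by: AK luminescence; Read-out basis: lysis from increased AK signal; Control set: Clomiphene as positive control.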
miR122 inh – inhibitors of miR-122 in Huh7 cells; Huh7 miR-122 Renilla luciferase sensor, 48 h; neutral wells = 0, positive control = 100; activation (reporter increase), % at 12.5 µM; AID 602342; actives 0.3% (n = 340,000);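 active = mean replicate activation score at least 90 and every replicate individually at or above 90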;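 note: higher luciferase means less miR-122 activity so hits act as miR-122 inhibitors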
Statin myotox sup – suppression of simvastatin myotoxicity. C2C12 myotubes + simvastatin, ATP luminescence, 48 h; scaled: DMSO 0, geranylgeraniol control 100. rescue of ATP level, % at 7.49 µM. actives 0.78% (n = 330,000);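 active = mean ATP rescue above about 67%, or every replicate alone reaching that limit, limit read from the data, passing the limit was not always enough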;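 note: myotubes were challenged with 10 µM simvastatin during compound exposure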
Yeast UUG start – yeast start codon fidelity modulation | S. cerevisiae UUG-firefly luciferase reporter, luminescence/redox ratio | activity score, % at 18.7 µM | 350,000 tested, 0.13% active;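 active = replicate mean at a twofold rise or more, about +100% in these data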;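 also: firefly luciferase made from a UUG start codon reports start codon fidelity; reporter light over untreated wells divided by growth signal over untreated wells; some hits fall short of that in this replicate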
* hit, by the source's call; . = not tested or not shown; [ ] = another dose, or the depositor's remark.

1: O=C(NC1CCN(C(=O)NCc2ccccc2)CC1)c1ccco1
2: CCCCCOC(=O)c1[nH]c2c(c1C)C(=O)CC(c1ccco1)C2 (centres undefined)
3: CCOCCOC(=O)c1[nH]c2c(c1C)C(=O)CC(c1ccccc1)C2 (centres undefined)
4: C[C@@H]1CN([C@H](C)CO)C(=O)Cc2cc(NC(=O)c3ccncc3)ccc2O[C@H]1CN(C)S(C)(=O)=O
5: O=C(NN=Cc1ccccc1Cl)c1ccccc1
6: CC(C)c1ccc(C(=O)N/N=C/c2cccc(Cl)c2Cl)cc1
7: CCCCOC(=O)CSC1=C(C#N)C(c2ccc3c(c2)OCO3)CC(=O)N1 (centres undefined)
8: O=C(C[C@H]1CC[C@H](NC(=O)Nc2ccc(F)cc2)[C@@H](CO)O1)NCc1cccc(F)c1

| compound no. | 1 | 2 | 3 | 4 | 5 | 6 | 7 | 8 |
| --- | --- | --- | --- | --- | --- | --- | --- | --- |
| Cneo AK release | 1 | -1 | 0 | -6 | -1 | -4 | -1 | 1 |
| miR122 inh | 13 | 121* | 86 | 3[16.7 µM] | . | 4 | 7 | . |
| Statin myotox sup | 101* | -33 | -160 | 12 | . | 113* | 102* | -8 |
| Yeast UUG start | -5 | -6 | 14 | -24 | -25 | -20 | -10 | -13 |

9: CO[C@@H](CN(C)C(=O)c1ccccc1F)[C@H](C)CN([C@@H](C)CO)S(=O)(=O)c1ccc(Cl)cc1
10: Cc1cccc(S(=O)(=O)N2CC[C@@H]3[C@H](CO)Nc4ccc(C5=CCCCC5)cc4[C@@H]32)c1
11: C/C(=N\NC(=O)c1ccccc1O)C1C(=O)c2ccccc2C1=O
12: C/C(=N/NC(=O)c1cc2ccccc2cc1O)C1C(=O)c2ccccc2C1=O
13: CC(=O)Nc1ccc(Nc2nnc(-c3ccc(C)c(S(=O)(=O)NCC4CCCO4)c3)c3ccccc23)cc1 (centres undefined)
14: Cc1ccc(-c2nnc(Nc3ccccc3)c3ccccc23)cc1S(=O)(=O)NCC1CCCO1 (centres undefined)
15: CO[C@H](CN(C)Cc1cc(F)ccc1F)[C@@H](C)CN([C@@H](C)CO)S(=O)(=O)c1ccc(F)cc1
16: C[C@@H]1CCCCO[C@@H](CN(C)C(=O)CCCN(C)C)[C@@H](C)CN([C@H](C)CO)C(=O)c2cc(NC(=O)c3ccccc3)ccc2O1

| compound no. | 9 | 10 | 11 | 12 | 13 | 14 | 15 | 16 |
| --- | --- | --- | --- | --- | --- | --- | --- | --- |
| Cneo AK release | 0 | -10 | -4 | 0 | -1 | 2 | 91* | -5 |
| miR122 inh | . | -19[16.7 µM] | 119* | 2 | 29 | 127* | . | -6[16.7 µM] |
| Statin myotox sup | 0 | -15 | -17 | -12 | 3 | -13 | -7 | 4 |
| Yeast UUG start | . | -16 | -10 | -8 | -18 | 58 | . | 6 |

17: COCC(=O)N(C)C[C@H]1Oc2cc(C#CC(C)(C)O)ccc2S(=O)(=O)N([C@H](C)CO)C[C@H]1C
18: O=C(Nc1nc2ccc(S(=O)(=O)N3CCCCC3)cc2s1)C1CCCO1 (centres undefined)
19: O=C(Nc1nc2ccc(S(=O)(=O)N3CCCC3)cc2s1)C1CCCCC1
20: CCCC#Cc1cnc2c(c1)C(=O)N([C@H](C)CO)C[C@H](C)[C@H](CN(C)Cc1ccc(C(=O)O)cc1)O2
21: CCCCNS(=O)(=O)c1ccc2nc(-c3cccnc3)cc(C(=O)NC3CCCC3)c2c1
22: CCCCNS(=O)(=O)c1ccc2nc(-c3cccnc3)cc(C(=O)NC3CC3)c2c1
23: CC(=O)NC(c1cc(Cl)c2ccccc2c1O)C(C)C (centres undefined)
24: CC(=O)NC(c1cc(Cl)c2cccnc2c1O)C(C)C (centres undefined)

| compound no. | 17 | 18 | 19 | 20 | 21 | 22 | 23 | 24 |
| --- | --- | --- | --- | --- | --- | --- | --- | --- |
| Cneo AK release | 1 | 1 | 1 | 1 | . | 1 | -3 | 1 |
| miR122 inh | . | 70 | 130* | 6[16.7 µM] | 97* | 53 | 10 | -20 |
| Statin myotox sup | 1 | . | . | -7 | 6 | -1 | 9 | 81* |
| Yeast UUG start | 3 | -7 | -4 | 14 | . | -15 | -15 | -42 |

25: CCOCCCNc1nc2c(-c3ccccc3)nnn2c2ccccc12
26: COc1cccc2cc(-c3csc(CCn4nc(C)cc4C)n3)c(=O)oc12
27: COc1ccc(OC)c(-c2csc(CCn3nc(C)cc3C)n2)c1
28: CC(C)Cc1nnc(NC(=O)Cc2ccccc2[N+](=O)[O-])s1
29: O=C(CSc1nc(-c2ccccc2)c(-c2ccccc2)o1)N1CCOCC1
30: O=C(CSc1nc(-c2ccccc2)c(-c2ccccc2)o1)Nc1nnc(-c2ccccc2)s1
31: O=C(CSc1nc(-c2ccccc2)c(-c2ccccc2)o1)Nc1nncs1
32: C#CCN1C(=O)C2C(C(=O)NC)C3C=CC2(O3)C1C(=O)NCc1ccc(OC)cc1 (centres undefined)

| compound no. | 25 | 26 | 27 | 28 | 29 | 30 | 31 | 32 |
| --- | --- | --- | --- | --- | --- | --- | --- | --- |
| Cneo AK release | 2 | 1 | 1 | 5 | 4 | 1 | 1 | 0 |
| miR122 inh | 0 | 18 | -10 | 126* | -2 | -8 | 1 | -4 |
| Statin myotox sup | 88* | 89* | -7 | -3 | -9 | 9 | 102* | -7 |
| Yeast UUG start | -42 | -14 | -6 | 1 | 111* | -7 | -8 | -1 |

33: C=CCN1C(=O)C2C(C(=O)NC)C3C=CC2(O3)C1C(=O)NCc1ccc(OC)cc1 (centres undefined)
34: Cc1ccc(N2C(=O)CCSC23C(=O)Nc2ccccc23)cc1 (centres undefined)
35: COc1ccc(N2C(=O)CSC23C(=O)Nc2ccccc23)cc1 (centres undefined)
36: O=c1c2c(nc3nc(COc4ccccc4)[nH]n13)CCC2
37: CC(C)c1ccc(CNc2nc3nc4c(c(=O)n3[nH]2)CCC4)cc1
38: O=c1c2c(nc3nc(SCc4ccccc4)[nH]n13)CCC2
39: C[C@H]1CN([C@@H](C)CO)C(=O)c2cc(NC(=O)CCN3CCOCC3)ccc2O[C@H]1CN(C)Cc1ccc(Oc2ccccc2)cc1
40: CCN(CC)c1ccc(C2C(C(=O)OCCOC)=C(C)NC3=C2C(=O)CC(C)(C)C3)cc1 (centres undefined)

| compound no. | 33 | 34 | 35 | 36 | 37 | 38 | 39 | 40 |
| --- | --- | --- | --- | --- | --- | --- | --- | --- |
| Cneo AK release | 3 | 1 | 2 | -1 | 0 | -1 | -2 | 0 |
| miR122 inh | -1 | 5 | -15 | -1 | 0 | 112* | -5[16.7 µM] | 95* |
| Statin myotox sup | 105* | -22 | 110* | -5 | 111* | 5 | 41 | 7 |
| Yeast UUG start | 15 | -16 | -4 | -18 | -26 | 29 | -2 | 4 |

41: N#Cc1ccc(Oc2ccc(/C=N/O)cn2)cc1
42: COc1ccccc1NC(=O)N[C@@H]1C=C[C@H](CC(=O)N2CCC(Cc3ccccc3)CC2)O[C@H]1CO
43: O=C(CC1C(=O)OCN1C(=O)OCc1ccccc1)OCC(=O)c1ccccc1 (centres undefined)
44: O=C(O)CC1C(=O)OCN1C(=O)OCc1ccccc1 (centres undefined)
45: O=C([C@H]1[C@H](CO)[C@H]2Cn3c(cccc3=O)[C@@H]1N2Cc1cccc(Cl)c1)N1CCOCC1
46: C[C@@H]1CC=C[C@H]2[C@H]1C(=O)N(Cc1ccccc1)[C@H]2c1ccc(F)c(-c2ccc(N(C)C)cc2)c1
47: CC(=O)c1ccc(-c2cc([C@H]3[C@H]4C=CC[C@@H](C)[C@@H]4C(=O)N3Cc3ccccc3)ccc2F)cc1
48: Cc1cccc(S(=O)(=O)NC2CCCCCCC2)c1
49: O=C(COc1ccc(S(=O)(=O)NC2CCCCC2)cc1)NC1CCCC1
50: O=S(=O)(NC1CCCCCC1)c1cccc(Cl)c1

| compound no. | 41 | 42 | 43 | 44 | 45 | 46 | 47 | 48 | 49 | 50 |
| --- | --- | --- | --- | --- | --- | --- | --- | --- | --- | --- |
| Cneo AK release | -2 | 59 | 11 | 1 | 90* | 0 | 0 | -1 | 0 | -8 |
| miR122 inh | -8 | 1[16.7 µM] | 1 | -1 | . | -2 | -1 | 159* | 245* | . |
| Statin myotox sup | 122* | 10 | 103* | -5 | -7 | -8 | 160* | -1 | 6 | -2 |
| Yeast UUG start | 0 | 31 | -27 | -12 | . | -21 | -8 | 0 | 8 | -7 |

One compound at a time, as listed above. Screens in order: Cneo AK release | miR122 inh | Statin myotox sup | Yeast UUG start
O=C(CSc1nc(-c2ccccc2)c(-c2ccccc2)o1)Nc1nncs1 is listed as 1 | 1 | 102* | -8
O=C(C[C@H]1CC[C@H](NC(=O)Nc2ccc(F)cc2)[C@@H](CO)O1)NCc1cccc(F)c1 is listed as 1 | . | -8 | -13
O=c1c2c(nc3nc(SCc4ccccc4)[nH]n13)CCC2 is listed as -1 | 112* | 5 | 29
O=C(CSc1nc(-c2ccccc2)c(-c2ccccc2)o1)N1CCOCC1 is listed as 4 | -2 | -9 | 111*

From PubChem
